From PMC2443153 (BMC Biochemistry, 2008)

Conditions: in water
From the text: All cyclic nucleotides, as well as the free Pharos chromophore were derived from Biolog Life Science Institute (Bremen, Germany). […] Nucleotides were detected at λ = 280 nm.

Substance: 8-[Pharos-575]adenosine -3',5'-cyclic monophosphate [8-[ϕ-575]-cAMP]
- solubility: approximately 50 mM
